Measured affinities in a library of Ab-95 light chain variants

Target peptide (SARS-CoV-2 spike, HR2 region): PDVDLGDISGINAS

Parent scFv Ab-95: VH joined to VL by a (GGGGS)3 linker. Changes lie in the light chain CDRs alone.
VH: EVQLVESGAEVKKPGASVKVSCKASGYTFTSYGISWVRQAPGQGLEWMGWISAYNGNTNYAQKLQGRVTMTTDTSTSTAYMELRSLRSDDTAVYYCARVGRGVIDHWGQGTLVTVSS
VL: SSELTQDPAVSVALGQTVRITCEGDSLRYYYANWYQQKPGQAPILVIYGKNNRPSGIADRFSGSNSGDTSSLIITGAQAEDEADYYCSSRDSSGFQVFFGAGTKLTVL

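The parent was found by panning a naive human phage display library on the peptide. Variants in AAYL52 differ from the parent at up to three CDR positions; double and triple changes were sampled at random. In AlphaSeq, yeast of one mating type display the scFv and yeast of the other type display the target. After mating in shaken culture at 30 °C for 16 h, diploids were selected and their barcode pairs sequenced. Scores were corrected for input abundance and mapped to Kd with protein pairs of known affinity run in the same pool. Mating was done three times.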

The whole VL of each variant is written out. All variants listed here change R90 of the VL, counted from its first residue. Values are apparent Kd, the geometric mean of the replicates that gave a signal; lower means stronger binding. Where no diploid with the target was found in any replicate, the entry reads "no signal": below detection, most likely a poor binder, though not proof of it.

| VL | Kd (apparent) | detected |
|---|---|---|
| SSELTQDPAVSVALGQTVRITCEGDSLRYYYANWYQQKPGQAPILVIYGKNNRPSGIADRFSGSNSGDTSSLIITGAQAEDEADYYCSSIVSSGHQVFFGAGTKLTVL | 13 µM | 1 of 3 |
| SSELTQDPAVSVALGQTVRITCEGDQLRYYYANWYQQKPGQAPILVIYPKNNRPSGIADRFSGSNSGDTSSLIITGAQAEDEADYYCSSWDSSGFQVFFGAGTKLTVL | 38 µM | 1 of 3 |
| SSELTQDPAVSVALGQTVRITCEWDSLRYYYANWYQQKPGQAPILVIYGKNNRPSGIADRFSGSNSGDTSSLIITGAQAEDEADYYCSSGDSSGFQSFFGAGTKLTVL | 1.7 µM | 2 of 3 |
| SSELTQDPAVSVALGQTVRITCEGDSLRYYYANWYQQKPGQAPILVIYGKNKRPSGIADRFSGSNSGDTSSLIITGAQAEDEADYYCSSCDSSGFCVFFGAGTKLTVL | 3.3 µM | 3 of 3 |
| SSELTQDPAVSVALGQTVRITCEGDSLRYYCANWYQQKPGQAPILVIYGKNNRPSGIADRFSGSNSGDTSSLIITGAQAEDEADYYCSSFDSSGFQVFFGAGTKLTVL | 4.3 µM | 3 of 3 |
| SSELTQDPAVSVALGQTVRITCEGDHLRYYYANWYQQKPGQAPILVIYGKNNRPSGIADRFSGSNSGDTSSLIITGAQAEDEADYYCSSYDSSGFQVNFGAGTKLTVL | 320 nM | 2 of 3 |
| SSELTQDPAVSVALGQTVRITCEGDHLRYYYANWYQQKPGQAPILVIYGKNNRPSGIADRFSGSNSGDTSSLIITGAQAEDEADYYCSSIDSSGFQVMFGAGTKLTVL | no signal | 0 of 3 |
| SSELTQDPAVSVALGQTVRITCEGDSLRYYYANWYQQKPGQAPILVIYGKNNRPSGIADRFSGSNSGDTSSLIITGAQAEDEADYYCSSYDRSWFQVFFGAGTKLTVL | 940 nM | 2 of 3 |
| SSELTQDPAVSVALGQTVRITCEGDSLRYYYANWYQQKPGQAPILVIYGKNNRPSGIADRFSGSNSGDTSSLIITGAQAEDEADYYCSTMDSSGFQVGFGAGTKLTVL | 130 nM | 1 of 3 |
| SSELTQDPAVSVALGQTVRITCEGSSLRYYYANWYQQKPGQAPILVIYGKNNRPSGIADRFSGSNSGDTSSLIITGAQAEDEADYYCSSDDSSGFQPFFGAGTKLTVL | 7.5 µM | 1 of 3 |
| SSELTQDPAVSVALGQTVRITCEGDSLRYYYANWYQQKPGQAPILVIYGPNNRHSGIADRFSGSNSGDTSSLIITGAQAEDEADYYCSSVDSSGFQVFFGAGTKLTVL | 920 nM | 2 of 3 |
| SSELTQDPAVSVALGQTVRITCEGDSLRYYYANWYQQKPGQAPILVIYGKNARPSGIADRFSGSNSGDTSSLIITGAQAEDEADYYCSSLDSFGFQVFFGAGTKLTVL | 690 nM | 3 of 3 |
| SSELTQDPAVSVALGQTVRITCEGDSLRYYYANWYQQKPGQAPILVIYGKNNRPSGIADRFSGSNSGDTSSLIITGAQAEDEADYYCWSWDSSFFQVFFGAGTKLTVL | 90 nM | 3 of 3 |
| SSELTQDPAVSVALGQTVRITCEGDSLRYYYALWYQQKPGQAPILVIYGKNNRPSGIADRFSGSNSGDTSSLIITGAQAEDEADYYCSSFDSSMFQVFFGAGTKLTVL | 11 µM | 1 of 3 |

The closing 2 entries, repeated:

{"VL": "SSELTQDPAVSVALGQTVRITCEGDSLRYYYANWYQQKPGQAPILVIYGKNNRPSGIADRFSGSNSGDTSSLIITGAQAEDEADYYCWSWDSSFFQVFFGAGTKLTVL", "Kd (apparent)": "90 nM", "detected": "3 of 3"}
{"VL": "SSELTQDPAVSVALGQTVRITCEGDSLRYYYALWYQQKPGQAPILVIYGKNNRPSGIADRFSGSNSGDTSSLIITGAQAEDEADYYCSSFDSSMFQVFFGAGTKLTVL", "Kd (apparent)": "11 µM", "detected": "1 of 3"}

Background: pairings of library AAYL52 with three empty control strains gave a value in 28% of cases (median 8.2 µM, 5th percentile 800 nM). Values in that range, when seen in few replicates, are hard to tell from nonspecific mating.

Values reported by Engelhart et al. 2022, doi:10.1038/s41597-022-01779-4 (FLAb copy).